{"source": "paper PMC6784148", "about": "(Toxins, 2019)", "test": "in vitro", "conditions": "pig", "data": [{"smiles": "CC1=C[C@H]2O[C@@H]3[C@H](O)C[C@](C)([C@@]2(CO)[C@H](O)C1=O)[C@]31CO1", "note": "[Deoxynivalenol, reference compound]", "values": [{"measurement": "viability at 1.25 µM", "result": 78.8, "unit": "%"}]}]}
